# From patent US8951734 (TRUSTEES OF COLUMBIA UNIVERSITY IN THE CITY OF NEW YORK, dated 2015)
# Sequences of proteins named here, by UniProt entry; tags and fusion partners are left off. A line that says so, or that is headed by a name, gives the form on record, which may keep a tag or linker.
# UniProt Q9VSR3, other isoform, or with tags, fused parts or gaps: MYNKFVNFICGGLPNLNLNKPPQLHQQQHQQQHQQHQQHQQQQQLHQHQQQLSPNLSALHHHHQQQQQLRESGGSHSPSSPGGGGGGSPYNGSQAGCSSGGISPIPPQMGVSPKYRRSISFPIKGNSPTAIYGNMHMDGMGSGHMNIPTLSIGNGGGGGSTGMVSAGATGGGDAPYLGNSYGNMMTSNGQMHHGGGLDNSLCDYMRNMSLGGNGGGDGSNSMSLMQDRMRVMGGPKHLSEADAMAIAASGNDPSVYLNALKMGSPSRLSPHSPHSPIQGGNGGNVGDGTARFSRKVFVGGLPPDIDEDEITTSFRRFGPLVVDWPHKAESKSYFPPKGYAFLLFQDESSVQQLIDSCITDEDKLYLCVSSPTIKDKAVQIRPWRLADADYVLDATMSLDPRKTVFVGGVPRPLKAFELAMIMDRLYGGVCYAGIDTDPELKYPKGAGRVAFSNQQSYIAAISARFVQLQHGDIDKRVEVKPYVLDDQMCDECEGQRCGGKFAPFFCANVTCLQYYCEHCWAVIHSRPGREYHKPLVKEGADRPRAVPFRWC
# B1: recombinant GST (other, UniProt P08515 1-218, looked up)
# chain: MSPILGYWKIKGLVQPTRLLLEYLEEKYEEHLYERDEGDKWRNKKFELGLEFPNLPYYIDGDVKLTQSMAIIRYIADKHNMLGGCPKERAEISMLEGAVLDIRYGVSRIAYSKDFETLKVDFLSKLPEMLKMFEDRLCHKTYLNGDHVTHPDFMLYDALDVVLYMDPMCLDAFPKLVCFKKRIEAIPQIDKYLKSSKYIAWPLQGWQATFGGGDHPPK
# notes: also called GST alone
# Target: T1, Drosophila CG5735 protein (Drosophila neuronal CPEB) (Drosophila, UniProt Q9VSR3, in part)
# T1 construct: also called CG5735RA; Drosophila CPEB
# Assay: GST pull-down from total Drosophila protein extract, Western blot with anti-CG5735
binder,measurement,value
B1,binding result,no binding
